Patent US8476225B2, “Antiviral compounds” (Gilead Sciences, Inc., priority 2009, dated 2013)

Chains of the proteins cited; added tags and fusions are not shown. Residues count along the entry.
UniProt P27958, 1027-1208: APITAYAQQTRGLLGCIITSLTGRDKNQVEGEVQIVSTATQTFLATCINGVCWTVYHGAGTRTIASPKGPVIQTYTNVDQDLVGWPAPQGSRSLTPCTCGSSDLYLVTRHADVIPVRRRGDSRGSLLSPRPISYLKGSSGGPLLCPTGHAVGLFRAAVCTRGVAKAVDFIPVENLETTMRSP

Molecular target: HCV NS3 protease (Hepatitis C virus genotype 1a (isolate H77) (HCV), UniProt P27958)
Assay: biochemical

| SMILES | IC50 |
| --- | --- |
| C=C[C@@H]1C[C@]1(NC(=O)[C@@H]1CN(c2ccc(-c3ccc(C#N)cc3)cc2)CN1C(=O)[C@@H](NC(=O)OC1CCCC1)C(C)(C)C)C(=O)NS(=O)(=O)C1CC1 [Example 48] | 28 nM |
| C=C[C@@H]1C[C@]1(NC(=O)[C@@H]1CN(c2ccc(-c3cnc(N)nc3)cc2)CN1C(=O)[C@@H](NC(=O)OC1CCCC1)C(C)(C)C)C(=O)NS(=O)(=O)C1CC1 [Example 49] | 16000 nM |
| C=C[C@@H]1C[C@]1(NC(=O)[C@@H]1CN(S(=O)(=O)c2ccc(N3CCCCC3)cc2)CN1C(=O)[C@@H](NC(=O)OC1CCCC1)C(C)(C)C)C(=O)NS(=O)(=O)C1CC1 [Example 50] | 3 nM |
| CCC[C@H](NC(=O)[C@@H]1CN(c2ccc(-c3ccccc3)cc2)CN1C(=O)[C@@H](NC(=O)OC1CCCC1)C(C)(C)C)C(=O)C(=O)NC1CC1 [Example 51] | 940 nM |
| CC(C)(C)[C@H](NC(=O)OC1CCCC1)C(=O)N1CN(Cc2ccccc2)C[C@H]1C(=O)NC(CC1CCC1)C(=O)C(N)=O (stereo partly drawn) [Example 52] | 4200 nM |
| CCC[C@H](NC(=O)[C@@H]1CN(S(=O)(=O)c2ccc(Br)cc2)CN1C(=O)[C@@H](NC(=O)OC1CCCC1)C(C)(C)C)C(=O)C(=O)NC1CC1 [Example 53] | 500 nM |
| C=C[C@@H]1C[C@]1(NC(=O)[C@@H]1CN(c2cc(Cl)nc(OC)n2)CN1C(=O)[C@@H](NC(=O)OC1CCCC1)C(C)(C)C)C(=O)NS(=O)(=O)C1CC1 [Example 54] | 1000 nM |
| C=C[C@@H]1C[C@]1(NC(=O)[C@@H]1CN(c2cc(OC)nc(Cl)n2)CN1C(=O)[C@@H](NC(=O)OC1CCCC1)C(C)(C)C)C(=O)NS(=O)(=O)C1CC1 [Example 55] | 1090 nM |
| C=C[C@@H]1C[C@]1(NC(=O)[C@@H]1CN(c2cc(-c3ccccc3)nc(SC)n2)CN1C(=O)[C@@H](NC(=O)OC1CCCC1)C(C)(C)C)C(=O)NS(=O)(=O)C1CC1 [Example 56] | 3400 nM |
| C=C[C@@H]1C[C@]1(NC(=O)[C@@H]1CN(c2ccc(-c3ccccc3)cc2)C(=O)N1C(=O)[C@@H](NC(=O)OC1CCCC1)C(C)(C)C)C(=O)NS(=O)(=O)C1CC1 [Example 57] | 610 nM |
| C=C[C@@H]1C[C@]1(NC(=O)[C@@H]1CN(c2ccc(-c3ccccc3)cc2)CN1C(=O)[C@@H](NC(=O)OC(C)(C)C)C(C)(C)C)C(=O)NS(=O)(=O)C1CC1 [Example 58] | 5 nM |
| C=C[C@@H]1C[C@]1(NC(=O)[C@@H]1CN(c2ccc(-c3ccccc3)cc2)CN1C(=O)[C@@H](NC(=O)OC(C)(C)C(F)(F)F)C(C)(C)C)C(=O)NS(=O)(=O)C1CC1 [Example 59] | 2 nM |
| C=C[C@@H]1C[C@]1(NC(=O)[C@@H]1CN(S(=O)(=O)c2ccccc2Br)CN1C(=O)[C@@H](NC(=O)OC1CCCC1)C(C)(C)C)C(=O)NS(=O)(=O)C1CC1 [Example 61] | 20 nM |
| C=C[C@@H]1C[C@]1(NC(=O)[C@@H]1CN(c2cc(-c3ccccc3)nc(OC)n2)CN1C(=O)[C@@H](NC(=O)OC1CCCC1)C(C)(C)C)C(=O)NS(=O)(=O)C1CC1 [Example 62] | 1420 nM |
| C=C[C@@H]1C[C@]1(NC(=O)[C@@H]1CN(c2cc(N3CCCCC3)nc(OC)n2)CN1C(=O)[C@@H](NC(=O)OC1CCCC1)C(C)(C)C)C(=O)NS(=O)(=O)C1CC1 [Example 63] | 1430 nM |
| C=C[C@@H]1C[C@]1(NC(=O)[C@@H]1CN(c2cc(OC)nc(N3CCCCC3)n2)CN1C(=O)[C@@H](NC(=O)OC1CCCC1)C(C)(C)C)C(=O)NS(=O)(=O)C1CC1 [Example 64] | 1150 nM |
| C=C[C@@H]1C[C@]1(NC(=O)[C@@H]1CN(c2cc(Cl)nc(N3CCCCC3)n2)CN1C(=O)[C@@H](NC(=O)OC1CCCC1)C(C)(C)C)C(=O)NS(=O)(=O)C1CC1 [Example 65] | 950 nM |
| C=C[C@@H]1C[C@]1(NC(=O)[C@@H]1CN(c2cc(Nc3ccccc3)nc(OC)n2)CN1C(=O)[C@@H](NC(=O)OC1CCCC1)C(C)(C)C)C(=O)NS(=O)(=O)C1CC1 [Example 66] | 610 nM |
